This assay has as its target T1, Haspin-kd (human, kinase domain, amino acids 470–798) (Homo sapiens, UniProt Q8TF76).
T1 construct: Haspin-kd (human, kinase domain, amino acids 470–798, recombinant, expressed in bacteria); host or cells: bacteria
T1 sequence (Q8TF76 470-798): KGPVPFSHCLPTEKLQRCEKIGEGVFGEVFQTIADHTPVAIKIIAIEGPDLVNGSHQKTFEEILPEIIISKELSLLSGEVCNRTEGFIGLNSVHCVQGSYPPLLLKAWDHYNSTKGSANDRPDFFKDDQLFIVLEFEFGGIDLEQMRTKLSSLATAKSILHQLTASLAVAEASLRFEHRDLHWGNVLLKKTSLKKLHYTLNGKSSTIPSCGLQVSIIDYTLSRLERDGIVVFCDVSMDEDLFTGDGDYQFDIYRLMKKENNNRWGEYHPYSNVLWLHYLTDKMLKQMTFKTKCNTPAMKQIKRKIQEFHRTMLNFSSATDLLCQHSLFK
The assay is described as follows: ADP-Glo kinase inhibition assay, Haspin. It is filed as biochemical. The conditions noted are these: Haspin vs. CLK1, from IC50 values of reference 2. On the procedure: Kinase enzymatic activities were assayed in 384 well plates using the ADP-GloTM assay kit (Promega, Madison, WI, USA) according to the manufacturer’s guidance. Briefly, the reactions were carried out in a final volume of 6 μL for 30 min at 30 °C in an appropriate kinase buffer (10 mM MgCl2, 1 mM EGTA, 1 mM DTT, 25 mM Tris-HCl pH 7.5, 50 μg/mL heparin), with either protein or peptide as substrate in the presence of 10 μM ATP (40 mM Tris pH 7.5, 20 mM MgCl2 and 0.1 mg/mL of BSA). Afterward, 6 μL of ADP-GloTM Kinase Reagent was added to stop the kinase reaction. After an incubation time of 50 min at room temperature (RT), 12 μL of Kinase Detection Reagent was added for 1 h at RT. The transmitted signal was measured using the Envision (Perkin Elmer, Waltham, MA, USA) microplate luminometer and expressed in relative light unit (RLU). In order to determine the half maximal inhibitory concentration (IC50), the assays were performed in duplicate in the absence or presence of increasing doses of the tested compounds. GraphPad Prism6 software (GraphPad Software, San Diego, CA, USA) was used to fit dose–response curves and to determine the IC50 values. Kinase activities are expressed in the percentage of maximal activity, i.e., measured in the absence of an inhibitor. Peptide substrates were obtained from Proteogenix (Schiltigheim, France).

The structures appear in SMILES notation.

As to `CSc1ncc2cc3cnccc3c([N+](=O)[O-])c2n1` [II, reference compound], the “Selectivity Index (SI) Haspin vs. CLK1 = CLK1 IC50/Haspin IC50” value is recorded as 1.9.
